Results taken from patent US11253506B2, “Compounds, compositions and methods for preventing and/or treating chlorine inhalation toxicity and/or injury” (dated 2022).

Experiments:
[1] = tested on: animals exposed to toxic inhalational levels of chlorine; assay: Ability of therapeutic agents to stabilize and/or rescue animals exposed to toxic inhalational levels of chlorine; settings: for ability to stabilize and/or rescue animals exposed to toxic inhalational levels of chlorine: in some cases even worsened the animal's overall condition; for effects on animals exposed to high inhalational levels of chlorine: in vivo
[2] = tested on: rats exposed to chlorine gas; assay: Survival after massive chlorine inhalation
[3] = tested on: rats exposed to chlorine gas; assay: Arterial blood gas and blood chemistry after chlorine inhalation
[4] = tested on: rats exposed to chlorine gas; assay: Oxygen saturation, respiratory rate and clinical distress scoring after chlorine inhalation
[5] = tested on: rats exposed to chlorine gas; assay: Observational neuromuscular/ataxia scoring after chlorine inhalation; settings: scopolamine, severe chlorine exposure
[6] = tested on: rats exposed to chlorine gas; assay: Heart rate, cardiac output, stroke volume and pulmonary artery pressure after chlorine inhalation (cardiac catheterization); settings: scopolamine, severe chlorine exposure
[7] = scopolamine, severe chlorine exposure

Question: For `COc1ccccc1OCC(O)CN1CCN(CC(=O)Nc2c(C)cccc2C)CC1` (stereo not shown), which “ability to stabilize and/or rescue animals exposed to toxic inhalational levels of chlorine” value (“ability” below) [1] is on record?
Answer: ineffective

Question: Which “ability” value [1] does the source give for sodium bicarbonate here?
Answer: ineffective

Question: What does the source list for 2-pyridine aldoxime methyl chloride?
Answer: time to death after dosing (n=5) ([2]; 2-PAM IM 40 mg/kg with atropine after chlorine, n=1 survived to 1 hour): ≤ 10 min; blood acidosis values (pH, paCO2, lactate) ([3]; 2-PAM addition to atropine): no improvement; blood cyanide levels ([3]; after 2-PAM IM 40 mg/kg with atropine in chlorine-exposed rats): undetectable; oxygen saturation ([4]; 2-PAM after LD60-75 chlorine): no effect; ability to stabilize and/or rescue animals exposed to toxic inhalational levels of chlorine [1]: ineffective

Question: For cobinamide, which “ability” value [1] is on record?
Answer: ineffective

Question: How did the “ability” value [1] turn out when `O=[N+]([O-])c1nccn1CC(O)CN1CCCCC1` (stereo not shown) was run?
Answer: ineffective

Question: Which results are given for `CN1[C@@H]2C[C@@H](OC(=O)[C@H](CO)c3ccccc3)C[C@H]1C1OC12` (stereo partly shown)?
Answer: survival to 6 hours ([2]; scopolamine, route variation study, severe chlorine exposure): improved; ABG (arterial blood gas) [3, 7]: improved; ataxia and seizure activity [5]: decreases; SpO2 [4, 7]: does not improve; effects on animals exposed to high inhalational levels of chlorine [1]: beneficial effects; heart rate [6]: does not improve

Question: Which “effects on animals exposed to high inhalational levels of chlorine” value [1] does the source give for `CN1[C@@H]2CC[C@H]1C[C@@H](OC(=O)C(CO)c1ccccc1)C2` (stereo partly shown) here?
Answer: beneficial effects

Question: How did the “ability” value [1] turn out when racemic epinephrine was run?
Answer: ineffective

Question: `CC(CCc1ccc(O)cc1)NCCc1ccc(O)c(O)c1` (stereo not shown) was tested. Which “ability” value [1] did it give?
Answer: ineffective

Question: inhaled nitric oxide was tested. Which “ability” value [1] did it give?
Answer: ineffective

Question: “manganese(III)meso-tetrakis(N,N′-diethyl-1,3-imidazolium-2-yl)porphyrin” was tested. Which “ability” value [1] did it give?
Answer: ineffective

Question: Which mortality ([2]; bosentan after massive chlorine inhalation) does the source give for `COc1ccccc1Oc1c(NS(=O)(=O)c2ccc(C(C)(C)C)cc2)nc(-c2ncccn2)nc1OCCO` here?
Answer: increased mortality

Question: What about the “ability” value [1] of the same molecule?
Answer: ineffective
